From patent US9278978B2

These compounds were tested against cIAP1 BIR3 (Homo sapiens (Human), UniProt Q13490) (assay: cIAP1 BIR3 binding assay (DELFIA), BIR3 domain-SMAC peptide interaction). Details: BIR3 domain 10 nM, SMAC peptide 10 nM; (S)-isomer (examples 1-34, 38-43) or racemate (examples 35-37); read-out: cIAP1 BIR-3 IC50.

In order of rising pIC50:
1. CNC(C)C(=O)Nc1cc(-c2ccccc2)cc(C#Cc2ccccc2)n1 (stereo not shown) [Example 33, 2-(methylamino)-N-[4-phenyl-6-(2-phenylethynyl)pyridin-2-yl]propanamide]  5.58
2. CNC(C)C(=O)Nc1cc(-c2cccc3cnn(C)c23)c(Cl)c(C#Cc2ccc3c(ccc(=O)n3C)c2)n1 (stereo not shown) [Example 25, N-[5-chloro-4-(1-methyl-1H-indazol-7-yl)-6-[2-(1-methyl-2-oxo-1,2-dihydroquinolin-6-yl)ethynyl]pyridin-2-yl]-2-(methylamino)propanamide]  8.00
3. CNC(C)C(=O)Nc1cc(-c2nc(C)nc3c(C)nn(C)c23)cc(C#Cc2ccc3c(C)nccc3c2)n1 (stereo not shown) [Example 16, 2-(methylamino)-N-{6-[2-(1-methylisoquinolin-6-yl)ethynyl]-4-{trimethyl-1H-pyrazolo[4,3-d]pyrimidin-7-yl}pyridin-2-yl}propanamide]  9.00
4. CNC(C)C(=O)Nc1cc(-c2nc(C)nc3c(C)nn(C)c23)cc(C#Cc2ccc3c(cnn3C)c2)n1 (stereo not shown) [Example 17, N-{6-[2-(1-methyl-1H-indazol-5-yl)ethynyl]-4-{trimethyl-1H-pyrazolo[4,3-d]pyrimidin-7-yl}pyridin-2-yl}-2-(methylamino)propanamide]  9.00

pIC50: −log10 of the molar value.
